Measurements as given in patent US5908868A, “Retinol derivatives useful for enhancing immune response” (priority 1995, dated 1999).

What was measured:
[1] = tested on: RXR receptor; settings: (48,49); cited from earlier work
[2] = tested on: thymocytes; assay: Proliferation of anti-CD3e activated thymocytes in serum-free medium; assay type: cell-based, BALB/c mouse
Description: FIG. 14A: Purified BALB/c thymocytes were activated with immobilized anti-CD3e antibody and cultivated for four days in ITLB medium with or without retinol (3×10^-6 M), 14HRR (6×10^-7 M) (fresh 14HRR was added every 12 hours), human serum (3%) or FCS (10%) at the cellular densities shown. Proliferation was assayed by tritiated thymidine incorporation into cellular DNA. The SDs were below 20%.
FIG. 14B: BALB/c thymocytes (10^6 /ml) were added to microtiter plates coated with titrated amounts of anti-CD3e antibody with […] retinol or without, as indicated. Proliferation was measured in hexaduplicate wells on day 3 by ^3 H thymidine incorporation assay.
FIG. 14C: BALB/c thymocytes (3×10^6 /ml) were activated with anti-CD3e mAb as FIG. 1A. The total number of viable cells was determined by counting trypan blue-excluding cells, and those of blast cells by counting viable large cells in six replicate wells. […]
Purified thymocytes (5×10^5 cells/well) were stimulated by TCR crosslinking with immobilized anti-CD3e antibody (FIG. 15A) or 0.4 μg/ml Con A (FIG. 15B) in serum-free ITLB medium. […] DNA synthesis was measured after 72 hours by tritiated thymidine uptake as described. […]
Thymuses of 3 to 6-week-old BALB/c mice were teased in serum-free RPMI medium supplemented with 1% BSA, 10^-6 M linoleic acid and antibiotics. […] Cell viability was evaluated by trypan blue dye exclusion. […]

SMILES	activation of RXR receptor [1]	effectiveness relative to all-trans retinol [2]
CC1=C(/C=C/C(C)=C\C=C\C(C)=C\C(=O)O)C(C)(C)CCC1 [9-cis retinoic acid]	found to activate the RXR receptor	–
CC1=C(/C=C/C(C)=C/C=C/C(C)=C/C(=O)O)C(C)(C)CCC1 [all-trans retinoic acid]	–	completely inactive
